{"source": "patent US4599360A", "about": "“Ophthalmic anti-inflammatory agents” (Sankyo Company Limited, priority 1983, dated 1986)", "key": {"[1]": {"system": "RFVL type mice", "experiment": "Acute toxicity, oral administration", "settings": "mouse, in vivo"}, "[2]": {"experiment": "Acute toxicity, oral administration", "design": "species or system RFVL type mice", "settings": "mouse, in vivo, LD50"}}}
{"smiles": "CC(C(=O)O)c1ccc(C=C2CCCCC2=O)cc1", "note": "(centres unmarked) [D, 2-[4-(2-oxocyclohexylidenemethyl)phenyl]propionic acid]", "values": [{"measurement": "LD50", "setting": "[1]", "result": 2000, "unit": "mg/kg"}, {"measurement": "LD50", "setting": "[2]", "result": 1800, "unit": "mg/kg"}]}
